{"source": "IntAct's records for PubMed 26471729", "parents": {"B1": {"name": "Nuclear protein localization protein 4 homolog (Homo sapiens), Q8TAT6 (parent)", "chain": "MAESIIIRVQSPDGVKRITATKRETAATFLKKVAKEFGFQNNGFSVYINRNKTGEITASSNKSLNLLKIKHGDLLFLFPSSLAGPSSEMETSVPPGFKVFGAPNVVEDEIDQYLSKQDGKIYRSRDPQLCRHGPLGKCVHCVPLEPFDEDYLNHLEPPVKHMSFHAYIRKLTGGADKGKFVALENISCKIKSGCEGHLPWPNGICTKCQPSAITLNRQKYRHVDNIMFENHTVADRFLDFWRKTGNQHFGYLYGRYTEHKDIPLGIRAEVAAIYEPPQIGTQNSLELLEDPKAEVVDEIAAKLGLRKVGWIFTDLVSEDTRKGTVRYSRNKDTYFLSSEECITAGDFQNKHPNMCRLSPDGHFGSKFVTAVATGGPDNQVHFEGYQVSNQCMALVRDECLLPCKDAPELGYAKESSSEQYVPDVFYKDVDKFGNEITQLARPLPVEYLIIDITTTFPKDPVYTFSISQNPFPIENRDVLGETQDFHSLATYLSQNTSSVFLDTISDFHLLLFLVTNEVMPLQDSISLLLEAVRTRNEELAQTWKRSEQWATIEQLCSTVGGQLPGLHEYGAVGGSTHTATAAMWACQHCTFMNQPGTGHCEMCSLPRT"}}, "data": [{"variants_of": "B1", "conditions": "with tera_human VCP", "values": [{"variant": "I6A;R8A", "effect of a mutation on the interaction": "disrupting interaction strength"}, {"variant": "I6A;R8A;R17A", "effect of a mutation on the interaction": "disrupting interaction strength"}, {"variant": "I6A;R8A;R17A;R50A", "effect of a mutation on the interaction": "disrupting interaction strength"}, {"variant": "R50A", "effect of a mutation on the interaction": "disrupting interaction strength"}]}]}
